Earlier results as cited in US8815778B2, “PH modulation method to detect ligand-receptor binding” (The Texas A&M University System, priority 2008, dated 2014).

Details: 397 nm; cited from earlier work

For Coumarin 39, the “σ01 (λ)” value is listed as 4.7 (397 nm) 10^−17 cm^2.
